Test results taken from PubChem BioAssay (NCI).
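Assay format: 96-well plates, 48-hour exposure. GI50 = concentration required for 50% inhibition of growth. At the TGI there is no net growth.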

Key:
Test in all cases: inhibition of tumour cell growth, NCI panel, 48 h
SNB-75 CNS = test system: SNB-75 CNS
SK-OV-3 ovarian = test system: SK-OV-3 ovarian
HT29 colon = test system: HT29 colon
MCF7 breast = test system: MCF7 breast
SK-MEL-28 melanoma = test system: SK-MEL-28 melanoma
PC-3 prostate = test system: PC-3 prostate
SK-MEL-5 melanoma = test system: SK-MEL-5 melanoma
UO-31 renal = test system: UO-31 renal
IGROV1 ovarian = test system: IGROV1 ovarian
BT-549 breast = test system: BT-549 breast
OVCAR-8 ovarian = test system: OVCAR-8 ovarian
MOLT-4 leukemia = test system: MOLT-4 leukemia
NCI-H23 lung = test system: NCI-H23 lung
HS 578T breast = test system: HS 578T breast
MDA-N = test system: MDA-N
SR leukemia = test system: SR leukemia
KM12 colon = test system: KM12 colon
HL-60(TB) leukemia = test system: HL-60(TB) leukemia
EKVX NSCLC = test system: EKVX NSCLC
UACC-257 melanoma = test system: UACC-257 melanoma
OVCAR-5 ovarian = test system: OVCAR-5 ovarian
NCI-H522 lung = test system: NCI-H522 lung
TK-10 renal = test system: TK-10 renal
RPMI-8226 leukemia = test system: RPMI-8226 leukemia
SW-620 colon = test system: SW-620 colon
SN12C renal = test system: SN12C renal
MDA-MB-231 breast = test system: MDA-MB-231 breast
MDA-MB-435 = test system: MDA-MB-435
A498 renal = test system: A498 renal
NCI/ADR-RES ovarian = test system: NCI/ADR-RES ovarian
NCI-H460 lung = test system: NCI-H460 lung
CAKI-1 renal = test system: CAKI-1 renal
NCI-H322M lung = test system: NCI-H322M lung
HOP-92 NSCLC = test system: HOP-92 NSCLC
CCRF-CEM leukemia = test system: CCRF-CEM leukemia
K-562 leukemia = test system: K-562 leukemia
786-0 renal = test system: 786-0 renal
OVCAR-4 ovarian = test system: OVCAR-4 ovarian
DU-145 prostate = test system: DU-145 prostate
HOP-62 NSCLC = test system: HOP-62 NSCLC
ACHN renal = test system: ACHN renal
T-47D breast = test system: T-47D breast
SK-MEL-2 melanoma = test system: SK-MEL-2 melanoma
HCT-116 colon = test system: HCT-116 colon
SF-268 CNS = test system: SF-268 CNS
COLO 205 colon = test system: COLO 205 colon
RXF 393 renal = test system: RXF 393 renal
A549 NSCLC = test system: A549 NSCLC
UACC-62 melanoma = test system: UACC-62 melanoma
MALME-3M melanoma = test system: MALME-3M melanoma
SF-539 CNS = test system: SF-539 CNS
U251 CNS = test system: U251 CNS
SF-295 CNS = test system: SF-295 CNS
M14 melanoma = test system: M14 melanoma
SNB-19 CNS = test system: SNB-19 CNS
HCT-15 colon = test system: HCT-15 colon
OVCAR-3 ovarian = test system: OVCAR-3 ovarian
LOX IMVI melanoma = test system: LOX IMVI melanoma

## Cc1ccc([N+](=O)[O-])c(C[N+](C)(CCCl)CCCl)c1
SNB-75 CNS
  TGI: 56.7 µM
SK-OV-3 ovarian
  GI50: 37.1 µM
  TGI: > 100 µM
HT29 colon
  TGI: > 100 µM
MCF7 breast
  TGI: 21.5 µM
SK-MEL-28 melanoma
  TGI: 89.5 µM
PC-3 prostate
  TGI: 75.4 µM
SK-MEL-5 melanoma
  GI50: 10.5 µM
  TGI: 22.2 µM
UO-31 renal
  TGI: 65.2 µM
IGROV1 ovarian
  TGI: 64.9 µM
BT-549 breast
  TGI: 67.9 µM
OVCAR-8 ovarian
  TGI: > 100 µM
MOLT-4 leukemia
  TGI: 49.6 µM
NCI-H23 lung
  TGI: 51.4 µM
HS 578T breast
  TGI: > 100 µM
MDA-N
  TGI: 28.1 µM
SR leukemia
  TGI: 21.3 µM
KM12 colon
  TGI: 36.6 µM
HL-60(TB) leukemia
  TGI: 44.4 µM
EKVX NSCLC
  TGI: 48.8 µM
UACC-257 melanoma
  TGI: 30.2 µM
OVCAR-5 ovarian
  TGI: > 100 µM
NCI-H522 lung
  TGI: 59.3 µM
TK-10 renal
  TGI: 95.6 µM
RPMI-8226 leukemia
  GI50: 7.39 µM
  TGI: 33 µM
SW-620 colon
  TGI: 78.7 µM
SN12C renal
  GI50: 11.5 µM
  TGI: 47.8 µM
MDA-MB-231 breast
  TGI: 93.9 µM
MDA-MB-435
  TGI: 22.2 µM
A498 renal
  TGI: 51.4 µM
NCI/ADR-RES ovarian
  TGI: 66.4 µM
NCI-H460 lung
  TGI: 62.3 µM
CAKI-1 renal
  TGI: 33.4 µM
NCI-H322M lung
  TGI: 76.3 µM
HOP-92 NSCLC
  TGI: 69.4 µM
CCRF-CEM leukemia
  TGI: 52.2 µM
K-562 leukemia
  TGI: 61.2 µM
786-0 renal
  TGI: 57.8 µM
OVCAR-4 ovarian
  TGI: 27.7 µM
DU-145 prostate
  TGI: 26.2 µM
HOP-62 NSCLC
  TGI: 80.1 µM
ACHN renal
  GI50: 6.09 µM
  TGI: 21.8 µM
T-47D breast
  TGI: 35.6 µM
SK-MEL-2 melanoma
  TGI: > 100 µM
HCT-116 colon
  TGI: 53.5 µM
SF-268 CNS
  GI50: 34.3 µM
  TGI: > 100 µM
COLO 205 colon
  TGI: 34.5 µM
RXF 393 renal
  GI50: 11.3 µM
  TGI: 30.6 µM
A549 NSCLC
  TGI: 68.4 µM
UACC-62 melanoma
  TGI: 29.4 µM
MALME-3M melanoma
  TGI: 30.4 µM
SF-539 CNS
  TGI: 92 µM
U251 CNS
  TGI: 65.4 µM
SF-295 CNS
  TGI: 82.2 µM
M14 melanoma
  TGI: 39.7 µM
SNB-19 CNS
  TGI: 72.4 µM
HCT-15 colon
  TGI: 41.7 µM
OVCAR-3 ovarian
  TGI: 48.3 µM
LOX IMVI melanoma
  TGI: 83.4 µM
